Where two headings read alike, the source gives them in different places.
System: ICR-JCL male mice
Conditions: for Total, degree of fibrosis ++: number of mice with grade ++, fourth Total column; for Total, degree of fibrosis -: number of mice with grade -, first Total column

## benzylamino-bleomycin
Compared with bleomycin B2, lung fibrosis in mice, 10 mg./kg. i.v. over 10 days
  toxicity: lower
Lung L
  Total, degree of fibrosis ++: 0
  Total, degree of fibrosis -: 8
Lung L, number of mice with grade ±, second Total column
  Total, degree of fibrosis ±: 1
Lung L, number of mice, third Total column (head prints ± again)
  Total, degree of fibrosis ±: 1
Lung R
  Total, degree of fibrosis ++: 0
  Total, degree of fibrosis -: 7
Lung R, number of mice with grade ±, second Total column
  Total, degree of fibrosis ±: 3
Lung R, number of mice, third Total column (head prints ± again)
  Total, degree of fibrosis ±: 0
